Experimental findings from PubChem BioAssay AID493160 (Sanford-Burnham Center for Chemical Genomics, 2011) are described below.

The chains behind the UniProt entries cited, without tags or fusion partners.
UniProt Q2TB90, whole entry: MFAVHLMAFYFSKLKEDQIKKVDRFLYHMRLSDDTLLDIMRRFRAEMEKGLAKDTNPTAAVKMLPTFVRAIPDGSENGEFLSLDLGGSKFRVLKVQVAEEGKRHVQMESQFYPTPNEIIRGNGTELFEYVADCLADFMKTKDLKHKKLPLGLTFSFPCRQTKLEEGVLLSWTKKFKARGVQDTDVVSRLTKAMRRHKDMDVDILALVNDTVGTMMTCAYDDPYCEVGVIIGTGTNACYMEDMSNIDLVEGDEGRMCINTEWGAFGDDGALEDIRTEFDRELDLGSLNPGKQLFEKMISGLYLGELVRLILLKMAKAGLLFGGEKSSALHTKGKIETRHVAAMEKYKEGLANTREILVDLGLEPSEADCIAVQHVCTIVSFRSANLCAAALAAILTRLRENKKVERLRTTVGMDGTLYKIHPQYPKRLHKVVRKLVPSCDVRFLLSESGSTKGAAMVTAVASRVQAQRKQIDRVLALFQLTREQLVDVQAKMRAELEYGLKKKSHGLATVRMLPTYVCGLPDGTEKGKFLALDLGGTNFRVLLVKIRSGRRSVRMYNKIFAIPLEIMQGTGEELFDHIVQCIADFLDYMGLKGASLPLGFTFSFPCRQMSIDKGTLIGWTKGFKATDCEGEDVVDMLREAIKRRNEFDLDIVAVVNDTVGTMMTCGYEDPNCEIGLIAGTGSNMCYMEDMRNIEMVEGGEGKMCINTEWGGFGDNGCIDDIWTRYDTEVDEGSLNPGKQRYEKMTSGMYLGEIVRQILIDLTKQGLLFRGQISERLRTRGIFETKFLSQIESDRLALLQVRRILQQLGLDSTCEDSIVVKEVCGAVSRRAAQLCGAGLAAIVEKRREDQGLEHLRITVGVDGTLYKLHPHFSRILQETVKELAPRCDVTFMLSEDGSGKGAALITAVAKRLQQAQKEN

This is a selection; strong and weak results do not stand in their true shares. Some tests of the compounds listed are not included; inactive here does not mean inactive elsewhere. Activity calls are given as the source filed them.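 How the source made its calls: active means inhibition above about 35% when tested at 20 µM (limit read from the data); inactive means the rest.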

The target of this experiment is Hexokinase HKDC1 (Homo sapiens) (UniProt Q2TB90). Briefly: blockers of human HKDC1 enzyme activity – biochemical, fluorescence, uHTS, primary screen (AID 493160).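 Further: plate controls were DMSO wells with enzyme for no effect and DMSO wells lacking enzyme for full effect.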 As to conditions: recombinant HKDC1, G6PDH/diaphorase resazurin coupled fluorescence; at 20 µM; active compounds read high. In short, it runs like this: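 Assay system: in-house recombinant HK5 (HKDC1) enzyme. Input: HKDC1 at 5 µg/mL. Medium: Tris pH 8.0 buffer with MgCl2, Tween-20, BSA, BME. Dosing: single 20 µM dose. Schedule: 90 min reaction incubation at room temperature, dark. Signal: resazurin-to-resorufin fluorescence via G6PDH and diaphorase coupling, 525/613 nm. Controls: DMSO-enzyme wells negative, buffer-substituted wells positive.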
On the technique in general: Alamar Blue is a resazurin reagent that responds to reducing activity.
A word on the inhibition: it is the relative decrease from the control value, in per cent. For the molecule `Cc1ccc(C(=O)NCC2(N3CCCCC3)CCCCC2)cc1`, the inhibition is inactive: -6.21%. For `CC(C)N1C(=O)CC2(CCN(CCOC(=O)C(O)(c3ccccc3)c3ccccc3)CC2)C1=O`, the inhibition was inactive: 6.12%. In the case of `CCN(CC)CC(C)C(C)OC(=O)C(O)(c1ccccc1)c1ccccc1` (stereo not given) it was inactive: -9.27%; in that of `COc1cc(SC)ccc1C(=O)NCC1(N(C)C)CCCCC1`, inactive: 1.98%. In the case of `CN1[C@@H]2CC[C@H]1CC(OC(=O)C(O)(c1ccccc1)c1ccccc1)C2` (stereo not given in full) it was inactive: -3.01%.

Regarding `O=C(NCC1(N2CCCCC2)CCCCC1)c1cc([N+](=O)[O-])ccc1Cl`, the inhibition is inactive: -4.11%. The result for `CCN1CCCC(OC(=O)C2(O)c3ccccc3C=Cc3ccccc32)C1` (stereo not given) reads inactive: -5.9%. The result for `Cc1cc(C(=O)NCC2(N3CCCCC3)CCCCC2)ccc1[N+](=O)[O-]` reads inactive: -6.86%; that for `O=C(NCC1(N2CCCCC2)CCCCC1)c1cccc(Br)c1`, inactive: 0.88%. In the case of `COc1ccc(C(=O)NCC2(N(C)C)CCCCC2)cc1` it was inactive: -4.91%. As for `C=CCN1CCN(CCOC(=O)C(O)(c2ccccc2)c2ccccc2)CC1`, the inhibition is inactive: 13.8%. In the case of `O=C(NCC1(N2CCCCC2)CCCCC1)c1cc(F)c(F)cc1Cl` it was inactive: -3.55%; in that of `Cc1ccccc1C(=O)NCC1(N2CCCCC2)CCCCC1`, inactive: -9.51%; in that of `CN(C)c1ccc(C(=O)NCC2(N(C)C)CCCCC2)cc1`, inactive: 0.89%.

Regarding `CN(C)C1CCCC1OC(=O)C(O)(c1ccccc1)c1ccccc1` (stereo not given), the inhibition is inactive: -10.9%. The result for `O=C(NCC1(N2CCCCC2)CCCCC1)c1cccc(Cl)c1` reads inactive: 1.01%; that for `COc1cccc(C(=O)NCC2(N3CCCCC3)CCCCC2)c1`, inactive: -6.25%; that for `COc1ccc(Cl)cc1C(=O)NCC1(N(C)C)CCCCC1`, inactive: -3.32%.

On to `COc1cc(C(=O)NCC2(N(C)C)CCCCC2)c([N+](=O)[O-])cc1OC`, for which the inhibition was inactive: -0.73%.

Regarding `CN(C)C1(CNC(=O)c2ccc(Br)cc2)CCCCC1`, the inhibition is inactive: -4.9%. In the case of `CN(C)c1cccc(C(=O)NCC2(N(C)C)CCCCC2)c1` it was inactive: -4.35%; in that of `CC(C)Oc1ccc(C(=O)NCC2(N(C)C)CCCCC2)cc1`, inactive: -4.33%; in that of `O=C(OCCN1CCCC1)C(O)(c1ccccc1)c1ccccc1`, inactive: -9.5%. With `COc1ccc(Br)c(C(=O)NCC2(N3CCCCC3)CCCCC2)c1`, the inhibition was inactive: -4.24%. In the case of `O=C(OC1CN2CCC1CC2)C(CO)(c1ccccc1)c1ccccc1` (stereo not given) it was inactive: 6.93%.
